Measured properties of organic chemicals

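OPERA's authors assembled the values from existing databases and did not measure them anew. A listed value is a point estimate from one report or more. How each value was measured is not recorded, so precision varies. A value may pool stereoisomers or salt forms, and the file does not say which form was measured. Some upstream entries may be estimates or bounds without being marked so.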

Melting points are in °C. The boiling point refers to atmospheric pressure (760 mmHg), by the definition of the set. The octanol-water partition coefficient is given as log10; larger values mean a more lipophilic compound. Solubility in water is on a log10 molar scale (set defined at 25 °C). Vapor pressure is log10 of mmHg; the set covers 15 to 30 °C, mostly 20 to 25 °C. fu is the fraction unbound in human plasma, from 0 to 1. Cells with "n/a" have no entry in this list.

melting point (°C)	boiling point (°C)	logP	log S (log10 mol/L)	log vapor pressure (log10 mmHg)	fraction unbound	SMILES	name
114.7	n/a	2.2	n/a	-3.989	n/a	O=c1[nH]c2ccccc2n1CCCCl	1-(3-Chloropropyl)-1,3-dihydro-2H-benzimidazol-2-one
n/a	n/a	0.1	-2.622	n/a	n/a	Cc1ccc(S(=O)(=O)Oc2ccc(Nc3cc(S(=O)(=O)[O-])c(N)c4c3C(=O)c3ccccc3C4=O)cc2)cc1.[Na+]	n/a
-17.5	n/a	0.324	n/a	n/a	n/a	CCOC(=O)CCC(C)=O	Ethyl levulinate
n/a	160	n/a	n/a	0.324	n/a	C=CC(=O)OCCOC	2-Methoxyethyl acrylate
n/a	n/a	2.8	-4.59	n/a	n/a	O=[N+]([O-])c1ccc(CCc2ccc([N+](=O)[O-])cc2)cc1	Benzene, 1,1'-(1,2-ethanediyl)bis[4-nitro-
n/a	n/a	n/a	-8.591	-9.218	n/a	CC(=O)O[C@H]1CC[C@@]2(C)C(=CC[C@H]3[C@@H]4CC[C@H]([C@H](C)CCCC(C)C)[C@@]4(C)CC[C@@H]32)C1	Cholest-5-en-3-ol (3.beta.)-, 3-acetate
150	n/a	3.45	-4.374	-7.129	n/a	C[C@]1(COC(=O)C2CC2)[C@@H]2C[C@H](O)[C@@]3(C)Oc4cc(-c5cccnc5)oc(=O)c4[C@H](O)[C@@H]3[C@@]2(C)CC[C@@H]1OC(=O)C1CC1	Afidopyropen
136.5	n/a	n/a	-4.258	n/a	n/a	Cc1cc(C(C)(C)C)c(O)c(C)c1CC#N	(4-tert-Butyl-3-hydroxy-2,6-dimethylphenyl)acetonitrile
-46	n/a	n/a	n/a	1.353	n/a	CCOC(=O)C(F)F	Ethyl difluoroacetate
n/a	n/a	-0.57	-7.007	n/a	n/a	Cc1ccc(C(=O)OC(C)C)cc1N=Nc1c(O)c(C(=O)Nc2cc(Cl)c(NC(=O)c3cc4ccccc4c(N=Nc4cc(C(=O)OC(C)C)ccc4C)c3O)cc2Cl)cc2ccccc12	n/a
110.1	n/a	3.9	-3.466	-7.02	n/a	CC(C)CNC[C@@H](O)[C@H](Cc1ccccc1)NC(=O)OC(C)(C)C	n/a
n/a	n/a	0.94	-0.8	n/a	n/a	CC(C)(C)COC(=N)O	2,2-Dimethylpropyl hydrogen carbonimidate
n/a	n/a	0.58	n/a	-2.001	n/a	CCCCN(CCO)CCO	N-Butyldiethanolamine
-21	n/a	n/a	n/a	-0.011	n/a	C=C(C#N)C(=O)OCCCC	Butyl 2-cyanoacrylate
207	n/a	-0.33	-2.335	n/a	n/a	Nc1ccc2[nH]c(=O)[nH]c2c1	2H-Benzimidazol-2-one, 5-amino-1,3-dihydro-
167.6	n/a	n/a	n/a	-11.35	n/a	CC(C)O.COc1cc(NC(=O)/C(C#N)=C\Nc2ccc(OC)c(OCCCN3CCN(C)CC3)c2)c(Cl)cc1Cl.COc1cc(NC(=O)/C(C#N)=C\Nc2ccc(OC)c(OCCCN3CCN(C)CC3)c2)c(Cl)cc1Cl	n/a
159.6	n/a	-0.226	-3.239	n/a	n/a	CC(O)CNS(=O)(=O)CCCS(=O)(=O)c1ccc(C#N)c(C#N)c1 (centres undefined)	n/a
30.3	n/a	3.64	-2.395	-1.754	n/a	CC(=O)OC(C)(C)Cc1ccccc1	Dimethylbenzylcarbinyl acetate
82.3	366.7	n/a	n/a	-7.226	n/a	CCC[C@H]1CC[C@H]([C@H]2CO[C@H](c3cc(F)c(C(F)(F)Oc4cc(F)c(F)c(F)c4)c(F)c3)OC2)CC1	n/a
-50.5	n/a	n/a	-5.089	n/a	n/a	CCCCCCCCON1C(C)(C)CCC(OC(=O)CCCCCCCCC(=O)OC2CCC(C)(C)N(OCCCCCCCC)C2(C)C)C1(C)C (centres undefined)	n/a
n/a	n/a	1.64	-3.555	n/a	n/a	C[C@H](CCC(=O)O)[C@H]1CC[C@H]2[C@@H]3C(=O)C[C@@H]4CC(=O)CC[C@]4(C)[C@H]3CC(=O)[C@]12C	Dehydrocholic acid
146.4	n/a	3.4	-6.442	-12.28	n/a	O=C(/C=C/c1ccc2c(c1)OCO2)N(c1ccccc1)c1ccccc1	(2E)-3-(1,3-Benzodioxol-5-yl)-N,N-diphenylacrylamide
n/a	n/a	n/a	-3.28	n/a	0.25	COc1ccc(NS(=O)(=O)c2ccc(N)cc2)nn1	Sulfamethoxypyridazine
206	n/a	-0.76	n/a	n/a	n/a	CCOc1cc(C=O)ccc1O[C@@H]1O[C@H](CO)[C@@H](O)[C@H](O)[C@H]1O	Ethyl vanillin glucoside
n/a	n/a	n/a	-6.241	-9.953	n/a	CCCCN(CCCC)C(=S)SCSC(=S)N(CCCC)CCCC	4,4'-Methylene bis(dibutyldithiocarbamate)
217.5	n/a	n/a	-8.225	-13.95	n/a	CCCCCCCCNC(=O)Nc1ccc(Cc2ccc(NC(=O)NCCCCCCCC)cc2)cc1	N,N'-[Methylenedi(4,1-phenylene)]bis(N'-octylurea)

The first 4 entries again:

| SMILES | name | melting point (°C) | boiling point (°C) | logP | log S (log10 mol/L) | log vapor pressure (log10 mmHg) | fraction unbound |
|---|---|---|---|---|---|---|---|
| O=c1[nH]c2ccccc2n1CCCCl | 1-(3-Chloropropyl)-1,3-dihydro-2H-benzimidazol-2-one | 114.7 | n/a | 2.2 | n/a | -3.989 | n/a |
| Cc1ccc(S(=O)(=O)Oc2ccc(Nc3cc(S(=O)(=O)[O-])c(N)c4c3C(=O)c3ccccc3C4=O)cc2)cc1.[Na+] | n/a | n/a | n/a | 0.1 | -2.622 | n/a | n/a |
| CCOC(=O)CCC(C)=O | Ethyl levulinate | -17.5 | n/a | 0.324 | n/a | n/a | n/a |
| C=CC(=O)OCCOC | 2-Methoxyethyl acrylate | n/a | 160 | n/a | n/a | 0.324 | n/a |

Values as listed in the OPERA 2.9 repository of K. Mansouri.